# Only a part is listed here, and it is no random draw. Activity calls are given as the source filed them. The rule behind the calls is not given here.
# Assay: quenching of GFP signal – biochemical, fluorescence, artefact control for Rin1-Abl interaction inhibitor project, dose response (AID 602182);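 note: ABL1-eGFP fusion protein alone without its RIN1 binding partner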
# Settings: GFP fluorescence interference/quenching counterscreen
compound,measurement,value
CCC(c1nnnn1C1CCCCC1)N1CCC(n2c(=O)[nH]c3ccccc32)CC1 (stereo unspecified),IC50,inactive: > 67.6 µM

# — PubChem BioAssay AID602182 (The Scripps Research Institute Molecular Screening Center, 2012)
